Protein sequences, listed by entry. Tags and fused reporters are not part of them.
UniProt P23975, whole entry: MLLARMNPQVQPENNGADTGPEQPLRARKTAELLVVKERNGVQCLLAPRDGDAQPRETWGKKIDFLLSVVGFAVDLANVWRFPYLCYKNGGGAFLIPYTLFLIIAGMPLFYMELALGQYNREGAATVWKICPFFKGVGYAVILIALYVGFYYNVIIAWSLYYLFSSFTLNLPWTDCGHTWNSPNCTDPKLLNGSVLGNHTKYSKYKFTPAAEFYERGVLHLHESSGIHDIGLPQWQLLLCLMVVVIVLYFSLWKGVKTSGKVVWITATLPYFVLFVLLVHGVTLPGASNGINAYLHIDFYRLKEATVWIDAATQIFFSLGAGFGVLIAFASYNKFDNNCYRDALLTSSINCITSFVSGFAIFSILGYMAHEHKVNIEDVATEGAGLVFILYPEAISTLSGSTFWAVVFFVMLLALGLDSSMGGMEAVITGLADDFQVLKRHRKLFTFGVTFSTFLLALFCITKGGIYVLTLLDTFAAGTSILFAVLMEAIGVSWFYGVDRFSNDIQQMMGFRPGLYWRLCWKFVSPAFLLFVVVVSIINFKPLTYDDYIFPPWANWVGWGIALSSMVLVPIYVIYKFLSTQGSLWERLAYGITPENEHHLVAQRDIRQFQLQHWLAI

According to publication PMC4441536 (Journal of Medicinal Chemistry, 2015):

Assays:
[1] = mouse, in vivo
[2] = molecular target: norepinephrine transporter (h) (Homo sapiens, UniProt P23975)

Row | SMILES | permeation in the CaCo-2 model (CaCo-2 model) | clearance [1] | F ([1]; 5 mg/kg) | nH Ref [2]
1 | Cn1cc(CCn2cnc(-c3cnn(C)c3)c2-c2ccc(C#N)cc2)cn1 | permeation | ~50 % of mouse liver blood flow | 0.70 | –
2 | CNCCCC1c2ccccc2C=Cc2ccccc21 [protriptyline] | – | – | – | 1.0
